US20060216726A1, “Method for optimizing thiopurine efficacy and toxicity using mass spectrometry” (Prometheus Laboratories Inc., priority 2004, published 2006)

What was measured:
[1] = patients with inflammatory bowel disease, azathioprine; cited from earlier work
[2] = human, in vivo

Substance | Threshold associated with hepatotoxicity [1] | RBC level, TPMT heterozygous genotype [2] | RBC level, TPMT homozygous wild type genotype [2] | Threshold associated with leukopenia [1] | Average RBC level, TPMT homozygous mutant genotype [2] | RBC levels reached / detection, TPMT homozygous mutant genotype [2]
6-methyl-mercaptopurine nucleotide [6-MMPN] | > 5700 pmol/8×10^8 cells | 808±144 pmol/8×10^8 RBCs | 2679±107 pmol/8×10^8 RBCs | – | – | –
6-thioguanine nucleotide [6-TGN] | – | 408±23 pmol/8×10^8 RBCs | 202±3 pmol/8×10^8 RBCs | > 400 pmol/8×10^8 cells | 2681±406 pmol/8×10^8 RBCs | above 1000 pmol/8×10^8 RBCs
